Data as given in paper PMC12102759 (Protein Science : A Publication of the Protein Society, 2025).

Test system: MDM2 SWIB
Type: binding, human
Details: library DMS-BM; bait MDM2 SWIB; prey TP53; peptide QETFSDLWKLLPENNV; columns = wild-type residues Q1-N15, rows = amino acid at that position

First: QETFSDLWKLLPENNV N14L (QETFSDLWKLLPELNV)
Second: QETFSDLWKLLPENNV N14M (QETFSDLWKLLPEMNV)
The “DMS PSSM value (position-specific score of the amino acid at the position; each column sums to 1)” value (“DMS PSSM value” for short) of the first is lower: 0.02619 for the first, 0.4028 for the second.

Going from QETFSDLWKLLPENNV N14N to “QETFSDLWKLLPENNV N14P (QETFSDLWKLLPEPNV)”, the “DMS PSSM value” value rises from 0.01853 to 0.1956.

First: QETFSDLWKLLPENNV N14Q (QETFSDLWKLLPEQNV)
Second: QETFSDLWKLLPENNV N14R (QETFSDLWKLLPERNV)
The “DMS PSSM value” value of the first is higher: 0.01222 for the first, 0.004322 for the second.

Compared with “QETFSDLWKLLPENNV N14S (QETFSDLWKLLPESNV)”, “QETFSDLWKLLPENNV N14T (QETFSDLWKLLPETNV)” is lower in “DMS PSSM value” value: 0.02024 for the first, 0.008894 for the second.

First: QETFSDLWKLLPENNV N14V (QETFSDLWKLLPEVNV)
Second: QETFSDLWKLLPENNV N14W (QETFSDLWKLLPEWNV)
The “DMS PSSM value” value of the first is lower: 0.02577 for the first, 0.07145 for the second.

Going from “QETFSDLWKLLPENNV N14Y (QETFSDLWKLLPEYNV)” to “QETFSDLWKLLPENNV N15A (QETFSDLWKLLPENAV)”, the “DMS PSSM value” value falls from 0.0196 to 0.01757.

First: QETFSDLWKLLPENNV N15D (QETFSDLWKLLPENDV)
Second: QETFSDLWKLLPENNV N15E (QETFSDLWKLLPENEV)
The “DMS PSSM value” value of the first is higher: 0.006439 for the first, 0.002306 for the second.

First: QETFSDLWKLLPENNV N15F (QETFSDLWKLLPENFV)
Second: QETFSDLWKLLPENNV N15G (QETFSDLWKLLPENGV)
The “DMS PSSM value” value of the first is lower: 0.01976 for the first, 0.1024 for the second.

Going from “QETFSDLWKLLPENNV N15H (QETFSDLWKLLPENHV)” to “QETFSDLWKLLPENNV N15I (QETFSDLWKLLPENIV)”, the “DMS PSSM value” value falls from 0.09598 to 0.001617.

Going from “QETFSDLWKLLPENNV N15K (QETFSDLWKLLPENKV)” to “QETFSDLWKLLPENNV N15L (QETFSDLWKLLPENLV)”, the “DMS PSSM value” value rises from 0.0003426 to 0.06563.

Going from “QETFSDLWKLLPENNV N15M (QETFSDLWKLLPENMV)” to QETFSDLWKLLPENNV N15N, the “DMS PSSM value” value falls from 0.5287 to 0.01297.

Compared with “QETFSDLWKLLPENNV N15P (QETFSDLWKLLPENPV)”, “QETFSDLWKLLPENNV N15Q (QETFSDLWKLLPENQV)” is higher in “DMS PSSM value” value: 0.001857 for the first, 0.003625 for the second.

First: QETFSDLWKLLPENNV N15R (QETFSDLWKLLPENRV)
Second: QETFSDLWKLLPENNV N15S (QETFSDLWKLLPENSV)
The “DMS PSSM value” value of the first is lower: 0.01196 for the first, 0.01451 for the second.

Going from “QETFSDLWKLLPENNV N15T (QETFSDLWKLLPENTV)” to “QETFSDLWKLLPENNV N15V (QETFSDLWKLLPENVV)”, the “DMS PSSM value” value rises from 0.006085 to 0.08323.

Going from “QETFSDLWKLLPENNV N15W (QETFSDLWKLLPENWV)” to “QETFSDLWKLLPENNV N15Y (QETFSDLWKLLPENYV)”, the “DMS PSSM value” value rises from 0.007347 to 0.01771.

Compared with “QETFSDLWKLLPENNV P12A (QETFSDLWKLLAENNV)”, “QETFSDLWKLLPENNV P12D (QETFSDLWKLLDENNV)” is lower in “DMS PSSM value” value: 0.02288 for the first, 0.0156 for the second.

Compared with “QETFSDLWKLLPENNV P12E (QETFSDLWKLLEENNV)”, “QETFSDLWKLLPENNV P12F (QETFSDLWKLLFENNV)” is higher in “DMS PSSM value” value: 0.001014 for the first, 0.06206 for the second.

Going from “QETFSDLWKLLPENNV P12G (QETFSDLWKLLGENNV)” to “QETFSDLWKLLPENNV P12H (QETFSDLWKLLHENNV)”, the “DMS PSSM value” value falls from 0.2119 to 0.

First: QETFSDLWKLLPENNV P12I (QETFSDLWKLLIENNV)
Second: QETFSDLWKLLPENNV P12K (QETFSDLWKLLKENNV)
The “DMS PSSM value” value of the first is higher: 0.002105 for the first, 0 for the second.

First: QETFSDLWKLLPENNV P12L (QETFSDLWKLLLENNV)
Second: QETFSDLWKLLPENNV P12M (QETFSDLWKLLMENNV)
The “DMS PSSM value” value of the first is higher: 0.06777 for the first, 0.04753 for the second.

Going from “QETFSDLWKLLPENNV P12N (QETFSDLWKLLNENNV)” to QETFSDLWKLLPENNV P12P, the “DMS PSSM value” value rises from 0.009292 to 0.04128.

Going from “QETFSDLWKLLPENNV P12Q (QETFSDLWKLLQENNV)” to “QETFSDLWKLLPENNV P12R (QETFSDLWKLLRENNV)”, the “DMS PSSM value” value falls from 0.01255 to 0.

Going from “QETFSDLWKLLPENNV P12S (QETFSDLWKLLSENNV)” to “QETFSDLWKLLPENNV P12T (QETFSDLWKLLTENNV)”, the “DMS PSSM value” value rises from 0.003119 to 0.0284.

First: QETFSDLWKLLPENNV P12V (QETFSDLWKLLVENNV)
Second: QETFSDLWKLLPENNV P12W (QETFSDLWKLLWENNV)
The “DMS PSSM value” value of the first is lower: 0.01364 for the first, 0.4568 for the second.

Compared with “QETFSDLWKLLPENNV P12Y (QETFSDLWKLLYENNV)”, QETFSDLWKLLPENNV Q1A (AETFSDLWKLLPENNV) is higher in “DMS PSSM value” value: 0.004058 for the first, 0.09572 for the second.

QETFSDLWKLLPENNV Q1D (DETFSDLWKLLPENNV) and QETFSDLWKLLPENNV Q1E (EETFSDLWKLLPENNV) are the same in “DMS PSSM value” value: 0 for the first, 0 for the second.

Compared with QETFSDLWKLLPENNV Q1F (FETFSDLWKLLPENNV), QETFSDLWKLLPENNV Q1G (GETFSDLWKLLPENNV) is lower in “DMS PSSM value” value: 0.1248 for the first, 0.02201 for the second.

First: QETFSDLWKLLPENNV Q1H (HETFSDLWKLLPENNV)
Second: QETFSDLWKLLPENNV Q1I (IETFSDLWKLLPENNV)
The “DMS PSSM value” value of the first is higher: 0.02884 for the first, 0.0211 for the second.

Compared with QETFSDLWKLLPENNV Q1K (KETFSDLWKLLPENNV), QETFSDLWKLLPENNV Q1L (LETFSDLWKLLPENNV) is lower in “DMS PSSM value” value: 0.002348 for the first, 0 for the second.

Going from QETFSDLWKLLPENNV Q1M (METFSDLWKLLPENNV) to QETFSDLWKLLPENNV Q1N (NETFSDLWKLLPENNV), the “DMS PSSM value” value falls from 0.07298 to 0.04826.

Going from QETFSDLWKLLPENNV Q1P (PETFSDLWKLLPENNV) to QETFSDLWKLLPENNV Q1Q, the “DMS PSSM value” value rises from 0.03094 to 0.04605.

Compared with QETFSDLWKLLPENNV Q1R (RETFSDLWKLLPENNV), QETFSDLWKLLPENNV Q1S (SETFSDLWKLLPENNV) is higher in “DMS PSSM value” value: 0.002348 for the first, 0.04122 for the second.

Compared with QETFSDLWKLLPENNV Q1T (TETFSDLWKLLPENNV), QETFSDLWKLLPENNV Q1V (VETFSDLWKLLPENNV) is lower in “DMS PSSM value” value: 0.3178 for the first, 0.1175 for the second.

First: QETFSDLWKLLPENNV Q1W (WETFSDLWKLLPENNV)
Second: QETFSDLWKLLPENNV Q1Y (YETFSDLWKLLPENNV)
The “DMS PSSM value” value of the first is lower: 0.0009189 for the first, 0.02712 for the second.

First: QETFSDLWKLLPENNV S5A (QETFADLWKLLPENNV)
Second: QETFSDLWKLLPENNV S5D (QETFDDLWKLLPENNV)
The “DMS PSSM value” value of the first is higher: 0.0715 for the first, 0 for the second.

Going from QETFSDLWKLLPENNV S5E (QETFEDLWKLLPENNV) to QETFSDLWKLLPENNV S5F (QETFFDLWKLLPENNV), the “DMS PSSM value” value rises from 0.02306 to 0.128.

Going from QETFSDLWKLLPENNV S5G (QETFGDLWKLLPENNV) to QETFSDLWKLLPENNV S5H (QETFHDLWKLLPENNV), the “DMS PSSM value” value falls from 0.06795 to 0.01847.

Going from QETFSDLWKLLPENNV S5I (QETFIDLWKLLPENNV) to QETFSDLWKLLPENNV S5K (QETFKDLWKLLPENNV), the “DMS PSSM value” value falls from 0.06052 to 0.

Compared with QETFSDLWKLLPENNV S5L (QETFLDLWKLLPENNV), QETFSDLWKLLPENNV S5M (QETFMDLWKLLPENNV) is lower in “DMS PSSM value” value: 0.2693 for the first, 0.02806 for the second.

Going from QETFSDLWKLLPENNV S5N (QETFNDLWKLLPENNV) to QETFSDLWKLLPENNV S5P (QETFPDLWKLLPENNV), the “DMS PSSM value” value falls from 0.03186 to 0.002032.
